# Source: PubChem BioAssay AID624416 (The Scripps Research Institute Molecular Screening Center, 2012)
# Only a part is listed here, and it is no random draw. Activity calls are given as the source filed them. No stated cut-off is given here; in the data, active means inhibition above about 8.5%; inactive means the rest.
# System: HIV-1 gp120 / PG9 antibody interaction
# Assay: binders of HIV-1 gp120 antibody PG9, primary screen, biochemical, TR-FRET (AID 624416)
# Conditions: TR-FRET gp120-PG9 antibody binding; at 6.7 µM; hits give high values
row,SMILES,inhibition
1,CCC(=O)N(c1ccccc1)C1(COC)CCN(CCn2nnn(CC)c2=O)CC1,inactive: -0.05%
2,CCC(=O)N(c1ccccc1)C1(COC)CCN(CCc2cccs2)CC1,inactive: 0.26%
